# Only a part is listed here, and it is no random draw. The source made the active and inactive calls. The call rests on the fitted dose curve; in most records, active means well fitted inhibition curve with a large enough effect; inconclusive means small, poorly fitted or top-dose-only effect; inactive means flat fitted curve, though single readings scatter.
# The chains behind the UniProt entries cited, without tags or fusion partners. Where a name states a change or a piece, a line headed by the entry shows the natural chain unless it says otherwise.
# UniProt P46063: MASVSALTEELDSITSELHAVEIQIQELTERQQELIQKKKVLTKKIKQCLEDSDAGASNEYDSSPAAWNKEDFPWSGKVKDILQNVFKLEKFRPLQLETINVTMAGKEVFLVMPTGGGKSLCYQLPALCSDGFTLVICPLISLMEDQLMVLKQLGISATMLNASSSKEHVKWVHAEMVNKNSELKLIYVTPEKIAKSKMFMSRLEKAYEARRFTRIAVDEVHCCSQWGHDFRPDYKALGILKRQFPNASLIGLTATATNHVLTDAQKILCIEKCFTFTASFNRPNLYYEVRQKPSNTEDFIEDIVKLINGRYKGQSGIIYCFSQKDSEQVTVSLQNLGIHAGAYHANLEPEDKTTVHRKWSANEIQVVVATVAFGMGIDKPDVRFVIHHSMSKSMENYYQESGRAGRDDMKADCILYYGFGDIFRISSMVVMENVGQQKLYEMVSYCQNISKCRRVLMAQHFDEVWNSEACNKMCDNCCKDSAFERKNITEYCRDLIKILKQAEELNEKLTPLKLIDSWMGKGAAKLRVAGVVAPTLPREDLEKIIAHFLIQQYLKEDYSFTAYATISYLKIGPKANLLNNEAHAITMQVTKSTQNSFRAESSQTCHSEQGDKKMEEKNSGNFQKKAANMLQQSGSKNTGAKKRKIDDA
# Target: ATP-dependent DNA helicase Q1 (Homo sapiens) (UniProt P46063)
# Test: qHTS Assay for Inhibitors of RecQ-Like Dna Helicase 1 (RECQ1); further: nearly all actives have a fitted effect of over 30% in size
# Details: RECQ1 DNA unwinding, red fluorescence kinetic read; series mostly up to 57.3 µM; activity, negative = inhibition: at the top concentration
# Description: Survival of cells and the faithful propagation of the genome depend on elaborate mechanisms of detecting and repairing DNA damage. Treatment of advanced cancer relies on radiation therapy or chemotherapy, which kill cancer cells by causing extensive DNA damage. It is often found, that cancer cells develop resistance to therapy through enhanced activity of DNA repair functions; this has led to an increased interest in developing drugs that interfere with DNA repair, which could sensitize cancer cells to conventional therapy.
# This validation qHTS assay pertains to human RECQ1, which is important in resolving abnormal DNA structures formed during replication or homologous recombination. Shutting down the expression of RECQ1 leads to chromosomal instability and higher radiation sensitivity in cultured cells.
# The validation assay was a fluorescence quenching based kinetic qHTS for RECQ1 Helicase DNA unwinding. The activity was measured as ATP-dependent separation of a 20-bp DNA duplex extended by 30-nt single-stranded tails (forked duplex). The forked DNA substrate was tagged with rhodamine fluorophore (carboxytetramethyl rhodamine, TAMRA) and BHQ-2 (Black Hole Quencher 2) dark quencher. Strand separation results in an increase in the fluorescence of TAMRA (excitation 525 nm, emission 598 nm). This substrate construct operates in a red-shifted region where very few compound library members have been noted to fluoresce (PubChem AIDs 593 and 594). An additional feature of the assay is the inclusion of 2.5 ug/ml poly (dIdC), to reduce interference by compounds such as DNA intercalators, a major source of false inhibitors.
# Opher Gileadi, Structural Genomics Consortium, University of Oxford
# Screening Center PI: Austin, C.P.
# Screening Center: NIH Chemical Genomics Center [NCGC]
# Three uL of reaction buffer (25 mM Tris-HCl (pH 8.0), 5 mM NaCl, 2 mM MgCl2, 1mM DTT, 0.01% Tween- 20, and 2.5 ug/ml poly(dI-dC), including enzyme (50 nM RECQ1T1), were dispensed into a 1536-well Greiner black assay plate via solenoid-valve based nanoliter dispensers. Compounds (23 nl each in columns 5-48) and control (23 nl each in column 2 as dose-response) were transferred via a Kalypsys pintool equipped with a 1536-pin array. The plates were incubated for 15 min at room temperature, and then 1 ul of substrates (200 nM DNA and 2 mM ATP, final concentrations) was added to start the reaction. The plate was transferred into a ViewLux high-throughput CCD imager where the reaction progress was measured in a discontinuous kinetic mode (two reads spaced 2 hours apart, with intermediate room temperature incubation of the covered assay plate) by using standard red-fluorescence optics (excitation filter 525 nm, emission filter 598 nm). Enzyme-free and vehicle (DMSO) controls were included for signal normalization.
# Potency means the concentration at half of the fitted maximal effect.
Structure (SMILES),"activity, negative = inhibition",Potency,outcome
CC(=O)Nc1ccc([As](=O)(O)O)c(O)c1,inactive: -1.7%,,
CC(=O)Nc1ccc(Oc2c([N+](=O)[O-])cc([N+](=O)[O-])cc2[N+](=O)[O-])cc1,inactive: 0.631%,,
C[C@@H]1C=CCP(=O)(Oc2ccccc2)O1 (some centres undefined),,active: 15.8 µM,
C[C@H]1OP(=O)(Oc2ccccc2)C[C@@H]2O[C@@H]21 (some centres undefined),inactive: -0.109%,,
c1ccc(-c2nn[nH]n2)c(-c2nn[nH]n2)c1,inactive: -5.19%,,
Cc1ccc(NP(=O)(Oc2cccc(C)c2)Oc2cccc(C)c2)nc1,inactive: -11.7%,,
CCOC(=O)NC(Sc1ccccc1)C(Cl)(Cl)Cl (centres undefined),inactive: -13.5%,,
O=C(NC1CCS(=O)(=O)C1)NP(=S)(Oc1ccccc1)Oc1ccccc1 (centres undefined),inactive: -4.63%,,
CCNC(=S)/N=C(\N)N[N+](=O)[O-],,,inactive
Cc1ccccc1OP(=O)(Nc1ccccn1)Oc1ccccc1C,inactive: -5.28%,,
CN(C)C(=O)Oc1noc2ccccc12,inactive: -7.74%,,
O=c1c2cc([N+](=O)[O-])ccc2[nH]c2c([N+](=O)[O-])cc([N+](=O)[O-])cc12,inactive: -18.5%,,
CN(C(=O)Cc1ccc(Cl)c(Cl)c1)[C@@H]1CCCC[C@@H]1N1CCCC1,inactive: -8.67%,,
CCC(=O)N1C2C3N(C(=O)CC)C1C1N(C(=O)CC)C(C(N1C(=O)CC)N3C(=O)CC)N2C(=O)CC,inactive: -3.02%,,
COC(=O)c1cc2c(s1)N=C(c1ccccc1)N(C)P2(=O)N1CCOCC1 (centres undefined),inactive: -12.1%,,
CC(=O)NC(SC(=S)N(CC(C)C)CC(C)C)C(Cl)(Cl)Cl (centres undefined),inactive: -7.56%,,
Cc1ccc(OP(=O)(Nc2ccccn2)Oc2ccc(C)cc2)cc1,inactive: -4.52%,,
Cc1cc([N+](=O)[O-])cc([N+](=O)[O-])c1O,inactive: -4.11%,,
CN(C(=O)Cc1ccccc1)[C@H]1CC[C@@]2(CCCO2)C[C@@H]1N1CCCC1,inactive: -1.62%,,
O=P(Nc1nc2ccccc2s1)(c1ccccc1)c1ccccc1,inactive: 17.7%,,
C[C@H]1OP(=O)(Oc2ccccc2)[C@H](O)[C@H](O)[C@H]1N=[N+]=[N-] (some centres undefined),inactive: 5.26%,,
O=P(Nc1ccccn1)(c1ccc(Br)cc1)c1ccc(Br)cc1,,,inactive
O=C(OC1CN2CCC1CC2)c1cccc(Cl)c1 (centres undefined),inactive: -9.14%,,

Structure (SMILES),"activity, negative = inhibition",Potency,outcome
Nc1ccc([As](=O)(O)c2ccc([N+](=O)[O-])cc2)cc1,,,inactive
C(Cc1nn[nH]n1)Cc1nn[nH]n1,,,inactive
O=[As](O)(c1ccccc1)c1ccc(O)cc1,inactive: -2.09%,,
CC(=O)NC(SC(=S)N(C)C)C(Cl)(Cl)Cl (centres undefined),inactive: -0.882%,,
O=[N+]([O-])c1ncn(CCn2cnc([N+](=O)[O-])n2)n1,inactive: -1.73%,,
c1nnnn1CCn1cnnn1,inactive: -10.8%,,
CCC(C)(OOC(C)(C)C)OOC(C)(C)C,inactive: -10.1%,,
O=P(Nc1nccs1)(c1ccccc1)c1ccccc1,inactive: 5.13%,,
CC(C)C(=O)NC(Sc1ccccc1)C(Cl)(Cl)Cl (centres undefined),inactive: -3.55%,,
Cc1ccc(NP(=O)(Oc2ccccc2)Oc2ccccc2)nc1,inactive: -8%,,
O=[N+]([O-])c1cc([N+](=O)[O-])c(CCNc2ccccc2)c([N+](=O)[O-])c1,inactive: -25.4%,,
CCc1nc2c(n1)c1c(non1O)c1c2no[n+]1[O-],inactive: -6.42%,,
CC(=O)N1C2C3N(C(C)=O)C1C1N(C(C)=O)C(C(N1C(C)=O)N3C(C)=O)N2C(C)=O,inactive: 0.355%,,
O=[N+]([O-])c1cccc2n[nH]nc12,,,inactive
COc1ccc(C2=NCC(CBr)S2)cc1 (centres undefined),inactive: -3.38%,,
CC1CCN(C(=O)Oc2c(Cl)cc(Cl)c3cccnc23)CC1,inactive: -0.806%,,
CC(=O)C1=CCCC2CCC1N2 (centres undefined),,inactive,
CC(C)=N/N=C(\N)N[N+](=O)[O-],,,inactive
CN(C)C(=O)OCCc1n(C)cc[n+]1C,inactive: 1.71%,,
CCN(/C(=N/P(=O)(N1CCOCC1)N1CCOCC1)N1CCOCC1)c1ccc(OC)cc1,inactive: -1.41%,,
Nc1ccc([As](=O)(O)c2ccc(N)cc2)cc1,,,inactive
O=C(Nc1cc([As](=O)(O)O)ccc1O)c1ccccc1,inactive: -11.4%,,
O=C(O)CNc1ccc([As](=O)(O)O)cc1,inactive: -11.3%,,

Structure (SMILES),"activity, negative = inhibition",Potency,outcome
O=[N+]([O-])c1cccc(NC2=NCC(CBr)S2)c1 (centres undefined),inactive: -4.08%,,
O=[N+]([O-])c1ncn(CCn2ncnc2[N+](=O)[O-])n1,inactive: -8.17%,,
CC(C)(C)C(=O)NC(Sc1ccncn1)C(Cl)(Cl)Cl (centres undefined),inactive: -2.46%,,
CCOP(=O)(Nc1ccccc1)OCC,,inactive,
Cc1cc(SC(NC(=O)c2ccc(F)cc2)C(Cl)(Cl)Cl)ncn1 (centres undefined),inactive: -2.82%,,
CN(C(=O)Cc1ccc(Cl)c(Cl)c1)[C@H]1CCCC[C@@H]1N1CCCC1,,inactive,
Cc1ccc(NP(=O)(Oc2ccccc2F)Oc2ccccc2F)nc1,inactive: -4.39%,,
O=P(Nc1nc2ccc(Cl)cc2s1)(c1ccccc1)c1ccccc1,inactive: -5.68%,,
O=C(O)c1ccccc1[As](=O)(O)O,,,inactive
CC(=O)Nc1ccc([As](=O)(O)O)cc1,,,inactive
Nc1cccc2ccc([As](=O)(O)O)cc12,inactive: -14.6%,,
CCN(N=Nc1nonc1N)c1nonc1N,inactive: -14.2%,,
Clc1ccc(Cl)c(NC2=NCC(CBr)S2)c1 (centres undefined),inactive: -0.0456%,,
CN1CCCC(OC(=O)C(c2ccccc2)c2ccccc2)C1 (centres undefined),inactive: -8.81%,,
COc1ccccc1OP(=O)(Nc1ccc(C)cn1)Oc1ccccc1OC,,,inactive
Cc1ccc(OP(=O)(Nc2nccs2)Oc2ccc(C)cc2)cc1,inactive: -6.55%,,
Cc1ccc(N/C(=N/P(=O)(N2CCOCC2)N2CCOCC2)N2CCOCC2)cc1,,,inactive
NC(=O)c1cc([N+](=O)[O-])cc([N+](=O)[O-])c1N,inactive: -0.335%,,
Oc1ccccc1CNc1ccccn1,inactive: 7.4%,,
Cc1c2non([O-])c-2c(C)[n+](=O)[n+]1[O-],,,inactive
O=C(NC(Sc1ccncn1)C(Cl)(Cl)Cl)c1ccccc1 (centres undefined),inactive: -11.1%,,
CC(C)CC(=O)NC(Sc1ccc(Cl)cc1)C(Cl)(Cl)Cl (centres undefined),inactive: 1.06%,,
Nc1cc(N)c2nonc2c1[N+](=O)[O-],inactive: 1.92%,,
